Shown are actives, neighbours in structure and some others; about 0.43% of the full set was active somewhere.
HCMV NEC inh – inhibitors of HCMV UL50-UL53 nuclear egress complex interaction. HTRF UL50-UL53 interaction, normalized percent inhibition. inhibition, % (concentration not given with the values). actives 0.15% (n = 190,000); in the data active means inhibition above about 27%, passing the limit was not always enough
GIV-Gai inh – inhibitors of GIV GBA-motif binding to rat Galpha-i3 | P08753 | Galpha-i3/FITC-GIV peptide fluorescence polarization, 90 min; active compounds read low; scaled: aluminum fluoride 0%, vehicle 100% | percent of control (FP), % (test concentration not listed) | 210,000 compounds, 0.42% hits;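 active means replicate mean at 85% of control or lower, very high polarization wells dropped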;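 further: lower values mean more displacement of the GIV peptide from Galpha-i3; wells of about 15 µL received 100 nL stock; the first replicate is given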
GIV-Gai FP conf – GIV-Galpha-i3 inhibition, FP confirmation | shares compounds with GIV-Gai inh | FITC-GIV peptide binding to Galphai3, fluorescence polarization; hits give low values | fluorescence polarization, mP at 100 µM | actives 38% (n = 580);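 active means inhibition score of 15 or more, meaning 100 minus mean polarization as percent of control over three replicates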;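 further: lower mP means peptide displaced from Galphai3 so more inhibition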
GIV-Gai AS conf – GIV-Galpha-i3 inhibition, AlphaScreen confirmation. shares compounds with GIV-Gai inh. AlphaScreen Galphai3-GIV binding, purified proteins, 90 min; hits give low values. AlphaScreen counts at 100 µM. actives 39% (n = 580). AID 1259351;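 active means inhibition score at or above a set limit, where the score is 100 minus the three-replicate mean percent of control signal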
* hit, by the source's call; . = no result given.

Codes: A = HCMV NEC inh; B = GIV-Gai inh; C = GIV-Gai FP conf; D = GIV-Gai AS conf
1. Cn1c(=O)[nH]c(=O)c2c1nc(NC1CCCCC1)n2CC(O)COc1ccc([N+](=O)[O-])cc1 (stereo unspecified)
  A: -7; B: 101; C: .; D: .

2. O=C(O)c1cc(NS(=O)(=O)c2ccc3c(c2)CCCC3)cnc1N1CCC(N2CCCCC2)CC1
  A: -24; B: 80*; C: 50*; D: 27614

3. O=C(O)c1cc(NS(=O)(=O)c2ccc(F)cc2)cnc1N1CCCC1
  A: -57; B: 77*; C: 47*; D: 18634*

4. O=C(O)c1cc(NS(=O)(=O)c2ccc3c(c2)CCCC3)ccc1N1CCN(C2CCCCC2)CC1
  A: -12; B: 107; C: .; D: .

5. CC(C)(C)c1ccc(S(=O)(=O)Nc2cnc(N3CCNCC3)c(C(=O)N3CCCC3)c2)cc1
  A: .; B: 106; C: .; D: .

6. CC(C)NC(=O)CSc1nnc(-c2ccc3c(c2)OCO3)o1
  A: -6; B: .; C: .; D: .

7. CN1C(=O)/C(=C2/Sc3ccccc3N2C)SC1=Nc1ccc(O)cc1
  A: -20; B: 98; C: .; D: .

8. O=c1cc(CNCc2ccccc2)nc2nc(NCc3ccccc3Cl)[nH]n12
  A: -23; B: 100; C: .; D: .

9. O=C1NC(=Nc2ccccc2Br)S/C1=C/c1cccs1
  A: -28; B: .; C: .; D: .

10. COc1cccc([C@@H]2[C@@H](C(=O)c3ccccc3)N3c4ccc5ccccc5c4C=C[C@@H]3C2(C#N)C#N)c1
  A: .; B: 124; C: .; D: .

11. O=[N+]([O-])c1ccc(NCCCO)cc1Sc1nc2ccccc2[nH]1
  A: .; B: 111; C: .; D: .

12. O=[N+]([O-])c1ccc(N2CCCCC2)cc1Sc1nc2ccccc2[nH]1
  A: .; B: 88; C: 62; D: 54142

13. Cc1c(C)[n+]([O-])c2ccc3c(non3O)c12
  A: -98; B: 94; C: .; D: .

14. COn1c(C)c(C)c2c3no[n+]([O-])c3ccc21
  A: -8; B: 72*; C: 60; D: 22452*

15. CCN(CC)c1ccc(/C=c2\sc3ncnn3c2=O)cc1
  A: .; B: 57*; C: 35*; D: 49389

16. COc1ccc(/C=c2\sc3ncnn3c2=O)cc1
  A: -36; B: .; C: .; D: .

17. CCOC(=O)CC1(NC(=O)N2CCCC2c2cc(C)on2)CCCCC1 (stereo unspecified)
  A: .; B: 101; C: .; D: .

18. CN(C)/C=C/C=C/c1cc(=O)cc(/C=C/C=C/N(C)C)o1
  A: 67*; B: 5.8*; C: 25*; D: 2403*

19. Nc1ncc(-c2nnnn2-c2ccccc2)c(-c2ccccc2)n1
  A: 1; B: 107; C: .; D: .

20. CCOCCOC(=O)c1ccc2c(c1)N(Cc1ccccn1)C(=O)c1ccccc1S2
  A: 20; B: 113; C: .; D: .

21. COc1ccc(/C=C2\SC(=O)N(CCC(=O)Nc3c(C)n(C)n(-c4ccccc4)c3=O)C2=O)cc1
  A: -7; B: 106; C: .; D: .

22. COc1ccc(/C=C2/SC(=S)N(CCC(=O)Nc3c(C)n(C)n(-c4ccccc4)c3=O)C2=O)cc1
  A: -15; B: 57*; C: 75; D: 43904

23. CC1(C)CC(=O)C2=C(C1)N(c1ccccc1)C(=O)CC2c1ccc([N+](=O)[O-])cc1 (stereo unspecified)
  A: .; B: 117; C: .; D: .

24. CC1(C)CCC2=C(O1)c1ccccc1C(=O)C2=O
  A: 110; B: 54*; C: 54*; D: 33926

25. CC1=C(C)C(=O)c2ccccc2C1=O
  A: -172; B: 109; C: .; D: .

The list goes on:
Codes: A = HCMV NEC inh; B = GIV-Gai inh; C = GIV-Gai FP conf; D = GIV-Gai AS conf
26. Nc1cccc2c1C(=O)N(CCO)C2=O
  A: -65; B: 75*; C: 55*; D: 50751

27. Nc1cccc2c1C(=O)N(CC(=O)N1CCc3ccccc31)C2=O
  A: -10; B: .; C: .; D: .

28. Cc1noc(C)c1C(=O)O/N=C(/c1cccs1)C(C)(C)C
  A: -5; B: 103; C: .; D: .

29. O=Cc1c(O)c2ccccc2c2ccccc12
  A: -27; B: 44*; C: 38*; D: 22285

30. O=c1oc2ccccc2c(O)c1C=Nc1ccccc1
  A: -14; B: 107; C: .; D: .

31. Cc1ccc(CNS(=O)(=O)c2c(C)sc(C)c2-c2cc(C(F)(F)F)on2)o1
  A: .; B: 111; C: .; D: .

32. CN1CCN(C2=NC(C(=O)Nc3ccccc3)CC(=O)N2)CC1 (stereo unspecified)
  A: 10; B: 109; C: .; D: .

33. O=C1CC(C(=O)Nc2ccccc2)N=C(N2CCc3ccccc3C2)N1 (stereo unspecified)
  A: 1; B: 81*; C: 75; D: 33162

34. c1ccc2c(c1)CCN2c1c2c(nc3ncnn13)CCC2
  A: -10; B: 91; C: 78; D: 25963

35. Cc1cc(N2CCc3ccccc32)n2ncnc2n1
  A: 0; B: 107; C: .; D: .

36. CN(C)c1ccc(-c2nnc3sc(-c4cccnc4)nn23)cc1
  A: -16; B: 83*; C: 63; D: 30008

37. CN(C)c1ccc(-c2nnc3sc(-c4ccncc4)nn23)cc1
  A: -63; B: 106; C: .; D: .

38. COc1ccc(-c2nn3c(-c4cc(C(C)C)[nH]n4)nnc3s2)c(OC)c1
  A: -13; B: 107; C: .; D: .

39. C=CCn1c(N)c(C(=O)Nc2ccc(C)cc2)c2nc3ccccc3nc21
  A: 2; B: .; C: .; D: .

40. Oc1ccccc1C=Nc1cccnc1
  A: -5; B: 83*; C: 42*; D: 16309*

41. Oc1ccc(N=Cc2ccccc2O)cc1
  A: 7; B: 104; C: .; D: .

42. COc1ccc(-n2c3nc(=O)[nH]c(=O)c-3cc3ccccc32)cc1
  A: .; B: 71*; C: 64; D: 8986*

43. Cc1ccc(-n2c3nc(=O)[nH]c(=O)c-3cc3ccccc32)cc1Cl
  A: .; B: 105; C: .; D: .

44. COc1ccc(N2CCN(c3nccc4ccc(C(=O)Nc5ccc(F)cc5F)cc34)CC2)cc1
  A: .; B: 100; C: .; D: .

45. COC(=O)CCn1cnc2onc(-c3cc(F)cc(F)c3)c2c1=O
  A: -37; B: 71*; C: 80; D: 36007

46. CC(C)NC(=O)CCn1cnc2onc(-c3cccc(F)c3)c2c1=O
  A: 1; B: 101; C: .; D: .

47. Cc1cc(C)nc(SC(C)CN(C)C)n1 (stereo unspecified)
  A: 0; B: .; C: .; D: .

48. Cc1ccc(C(C)C)c(OCC(=O)Nc2cc(-c3nc4ncccc4o3)ccc2C)c1
  A: .; B: 88; C: 62; D: 43747

49. Cc1cc(C)cc(C(=O)Nc2ccc(-c3nc4ncccc4o3)cc2)c1
  A: -39; B: 82*; C: 81; D: 27053

50. O=C(Nc1ccc(-c2nc3ncccc3o2)cc1)c1ccccc1
  A: .; B: 107; C: .; D: .

(listing goes on)
Codes: A = HCMV NEC inh; B = GIV-Gai inh; C = GIV-Gai FP conf; D = GIV-Gai AS conf
51. Cc1cc(C)c2oc(-c3ccc(NC(=O)COc4ccccc4C)cc3)nc2c1
  A: -56; B: 105; C: .; D: .

52. Cc1ccc(OCC(=O)Nc2ccc(-c3nc4ccccc4o3)cc2)c(C)c1
  A: 11; B: 93; C: 74; D: 32376

53. Cc1ccc(C(C)C)c(OCC(=O)Nc2cccc(-c3nc4ncccc4o3)c2)c1
  A: -68; B: 108; C: .; D: .

54. CCc1ccc(NC(=O)c2cc(=O)n3c(nc4ccccc43)s2)cc1
  A: 7; B: 105; C: .; D: .

55. COc1ccc(N2CC(O)(c3ccc(Br)cc3)[N+]3=C2CCCC3)cc1 (stereo unspecified)
  A: .; B: 103; C: .; D: .

56. O=C(CSC1=N/C(=C\c2ccc(F)cc2)C(=O)N1Cc1ccco1)N1CCCC1
  A: -33; B: .; C: .; D: .

57. CC(C)OP(=O)(OC(C)C)C(N)CC12CC3CC(CC(C3)C1)C2 (stereo unspecified)
  A: .; B: 106; C: .; D: .

58. CCN(CC)c1ccc(-c2c(C#N)c(N)nc(OC)c2C#N)cc1
  A: -22; B: 31*; C: 84; D: 47104

59. CCOc1ccccc1-c1c(C#N)c(N)nc(OC)c1C#N
  A: -13; B: 103; C: .; D: .

60. O=C(CSC1=NS(=O)(=O)c2ccccc21)Nc1ccccc1
  A: -17; B: 66*; C: 59; D: 10980*

61. COc1ccc(CCNC(=O)CSC2=NS(=O)(=O)c3ccccc32)cc1OC
  A: -16; B: 97; C: .; D: .

62. O=S(=O)(NC1CCCCCC1)c1cccc2nsnc12
  A: .; B: 115; C: .; D: .

63. COc1ccc(C(=O)CSc2nnc(-c3ccco3)c(-c3ccco3)n2)cc1
  A: .; B: 111; C: .; D: .

64. O=C(CSc1nnc(-c2ccco2)c(-c2ccco2)n1)Nc1ccc(C(=O)O)cc1
  A: -64; B: 77*; C: 60*; D: 2995*

65. Cc1ccc(Oc2coc3cc(OCC(=O)N4CCCCC4)ccc3c2=O)cc1
  A: .; B: 105; C: .; D: .

Exported field by field: entries from further up.
52) Cc1ccc(OCC(=O)Nc2ccc(-c3nc4ccccc4o3)cc2)c(C)c1
  HCMV NEC inh: 11
  GIV-Gai inh: 93
  GIV-Gai FP conf: 74
  GIV-Gai AS conf: 32376
60) O=C(CSC1=NS(=O)(=O)c2ccccc21)Nc1ccccc1
  HCMV NEC inh: -17
  GIV-Gai inh: 66*
  GIV-Gai FP conf: 59
  GIV-Gai AS conf: 10980*
59) CCOc1ccccc1-c1c(C#N)c(N)nc(OC)c1C#N
  HCMV NEC inh: -13
  GIV-Gai inh: 103
  GIV-Gai FP conf: .
  GIV-Gai AS conf: .
